Measurements: article PMC5058426 (Journal of porphyrins and phthalocyanines, 2016)

Target: EGFR extracellular domain (Homo sapiens, UniProt P00533)
Assay: SPR binding to immobilized EGFR
Settings: SPR sensorgram, 400 to 500 s, 100 μM

dissociation rate from EGFR: slower dissociation rates
Substance: LARLLT [Compound 7]
